{
  "source": "patent US20240360153A1",
  "about": "“SELECTIVE RAPAMYCIN ANALOGS AND USES THEREOF” (Regeneron Pharmaceuticals, Inc., priority 2023, published 2024)",
  "experiment": "In vitro microsomal metabolic stability, human liver microsomes",
  "format": "in vitro ADME",
  "method": "Buffers: PBK Buffer: 50 mM potassium phosphate buffer (PPB), pH 7.2, with 3.3 mM Magnesium Chloride.\nTA Intermediate solution: Compound or control (3 μL) diluted from stock solution (10 mM) with 297 μL 90.0% methanol/water. (Conc: 100 μM; 1.0% DMSO, 89.1% MeOH).\nControl cocktail intermediate solution: Each control (3 μL) was diluted with 291 μL 90.0% methanol/water.\nDiluted TA intermediate stock solution and PC control stock were made by transferring 80 μL of 100 μM TA stock solution into new tubes and then adding 720 μL of 1.0% DMSO in 50 mM potassium phosphate buffer (conc. 10 μM; 1.0% DMSO, 8.91% MeOH).\nPreparation of Liver microsomes working solution (1.25×)(final Conc.: 0.5 mg/mL).\nAcetonitrile:methanol (9:1, v/v)(including 200 ng/mL tolbutamide and 200 ng/ml labetalol hydrochloride as internal standards).\nWorking solution: Intermediate solution (80 μL) was diluted with 720 μL 1.0% DMSO in 50 mM potassium phosphate buffer (Conc.: 10 μM; 1.0% DMSO, 8.91% MeOH)\nProcedure: Stock solution was added to each of the time point plates. Microsomes solution (360 μL/well), TA/PC (45 μL/well), and NADPH (45 μL/well) min. (Conc: 1.0 μM, 0.10% DMSO, 0.891% MeOH) were added to the incubation plates. To the T60 and NCF60 plate, TA (15 ul/well) and Microsomes (120 ul) were added. To the blank plate, microsome (50 ul/well) with stop solution (150 ul/well) were added. At the end of each time point, 50 ul/well was aliquoted from the incubation plate. The sampling plates were shaken for approximately 10 min. on a shaker and the samples were centrifuged at 4000 rpm for 15 min. Supernatant (120 μL) was transferred for LC/MS/MS.Compounds from Table 3 were incubated at 37° C. with liver microsomes (pooled from multiple donors) at 1 μM in the presence of a NADPH regenerating system at 0.5 mg/ml microsomal protein. Positive controls included testosterone (3A4 substrate), propafenone (2D6) and diclofenac (2C9), which were incubated with microsomes in the presence of an NADPH regenerating system. At time points (0, 5, 10, 20, 30 and 60 minutes), samples were removed and immediately mixed with cold acetonitrile containing the internal standard (IS). Test compounds incubated with microsomes without the NADPH regenerating system for 60 min are also included. A single point for each test condition (n=1) was obtained, and samples were analyzed by LC/MS/MS. Disappearance of the test compound was assessed based on peak area ratios of analyte/IS (no standard curve).",
  "data": [
    {"substance": "Rapamycin [reference compound]", "values": [
      {"measurement": "CL", "value": 130, "unit": "µL/min/mg"},
      {"measurement": "CLint", "value": 117, "unit": "mL/min/kg"},
      {"measurement": "T1/2", "setting": "1 μM, 0.5 mg/ml protein, NADPH", "value": 10.7, "unit": "min"},
      {"measurement": "Remaining (T = 60 min)", "setting": "with NADPH, 60 min", "value": 1.40, "unit": "%"},
      {"measurement": "Remaining (T = NCF60 min)", "setting": "without NADPH regenerating system, 60 min", "value": 116, "unit": "%"}
    ]}
  ]
}
